# Data: PubChem BioAssay AID504326 (The Scripps Research Institute Molecular Screening Center, 2011)
# Chains of the proteins cited; added tags and fusions are not shown.
# UniProt P35372, whole entry, looked up: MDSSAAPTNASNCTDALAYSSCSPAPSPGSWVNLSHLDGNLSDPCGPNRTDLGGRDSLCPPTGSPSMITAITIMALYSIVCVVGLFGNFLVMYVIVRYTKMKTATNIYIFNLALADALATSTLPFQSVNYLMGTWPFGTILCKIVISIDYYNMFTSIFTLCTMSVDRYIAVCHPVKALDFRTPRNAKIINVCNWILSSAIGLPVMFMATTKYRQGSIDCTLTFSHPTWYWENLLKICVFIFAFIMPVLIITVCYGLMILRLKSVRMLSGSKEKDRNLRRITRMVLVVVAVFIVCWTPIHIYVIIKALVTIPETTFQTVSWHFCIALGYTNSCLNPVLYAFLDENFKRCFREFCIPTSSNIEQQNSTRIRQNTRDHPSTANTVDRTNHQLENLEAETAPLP
# UniProt P41143, whole entry, looked up: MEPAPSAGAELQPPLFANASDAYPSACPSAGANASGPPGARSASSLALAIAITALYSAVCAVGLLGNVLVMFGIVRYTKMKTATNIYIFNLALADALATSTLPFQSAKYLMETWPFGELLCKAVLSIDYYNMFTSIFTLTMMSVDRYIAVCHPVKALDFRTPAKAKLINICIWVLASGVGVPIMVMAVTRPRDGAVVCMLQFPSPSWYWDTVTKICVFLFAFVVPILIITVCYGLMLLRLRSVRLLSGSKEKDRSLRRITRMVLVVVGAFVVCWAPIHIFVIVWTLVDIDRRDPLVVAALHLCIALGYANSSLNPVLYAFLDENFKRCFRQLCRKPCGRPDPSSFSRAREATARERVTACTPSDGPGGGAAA
# The list shows a part of the results, in another mix than the full data. Calls of active or inactive are those of the source. No stated cut-off is given here; in the data, active means activation above about 18%; inactive means the rest.
# Molecular target: Mu-type opioid receptor (Homo sapiens) + Delta-type opioid receptor (Homo sapiens) (UniProt P35372+P41143)
# Test: agonists of OPRM1-OPRD1 heterodimerization, primary screen, cell-based, luminescence (AID 504326);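 further: 0% = vehicle-treated cells and 100% = reference agonist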
# Conditions: cells, at 9.3 µM, active compounds read high
row,SMILES,activation
1,Cn1c(=O)[nH]c(=O)c2c1nc(CN1CCN(c3ccccc3F)CC1)n2CC(N)=O,inactive: -1.67%
2,Cc1nc2cc(C(F)(F)F)ccc2n1C1CCN(Cc2nnnn2Cc2ccc3c(c2)OCO3)CC1,inactive: -1.26%
3,CC1CN(Cc2nc3c(c(=O)[nH]c(=O)n3C)n2CC(N)=O)CC(C)O1 (stereo not given),inactive: -0.79%
4,Cc1ccc(CNC(=O)CCNC(=O)N2CCn3c2nc2ccccc23)cc1,inactive: -2.41%
5,Cc1ccc(-c2csc(N3CCN(c4cc5c(cc4Cl)nc(C)n5CCN4CCCCC4)CC3)n2)cc1,inactive: 0.88%
6,Cc1cc(NC(=O)CSc2nc3ccccc3n2CC(=O)N2CCCCC2)no1,inactive: -0.41%
7,O=C(CCCN1CCC2(CC1)C(=O)NCN2c1ccccc1)c1ccc(F)cc1,inactive: 2.34%
8,Cn1c(=O)c2c(nc(CN3CCN(c4ccc(F)cc4)CC3)n2CCN2CCOCC2)n(C)c1=O,inactive: -1.88%
9,COc1cc(NC(=O)Cn2c(-c3cncs3)nc3ccccc32)cc(OC)c1OC,inactive: -1.58%
10,COC(=O)C[C@H](NC(=O)Cn1cnc2c(SC)nc(N)nc21)C(=O)OC,inactive: -2.78%
11,Cn1c(=O)c2c(nc(NCCc3ccccc3)n2CC(=O)NCCc2ccccc2)n(C)c1=O,inactive: 0.14%
12,COc1ccc(Cc2nnc(NC(=O)Cn3cnc4c3c(=O)n(C)c(=O)n4C)s2)cc1,inactive: -1.56%
13,CCN(CC)CCn1c(=N)n(CC(O)c2ccco2)c2ccccc21 (stereo not given),inactive: -1.41%
14,CC(C)Oc1cccnc1N(C)C1CCN(Cc2ccccc2)CC1,inactive: -0.87%
15,N#CCC(=O)N/N=C\c1ccccc1OC/C=C/c1ccccc1,inactive: 1.3%
16,Cc1ccc2c(c1)C1CN(C)CCC1N2CC(=O)N(C)c1ccccc1 (stereo not given),inactive: -0.76%
17,COCCCNC(=O)Cn1cnc2c(OCc3ccccc3)ncnc21,inactive: -2.87%
18,CCOC(=O)Nc1ccc2c(c1)nc1n2CCN(CCOC)C1,inactive: -1.94%
19,CSc1nc(N)nc2c1ncn2CC(=O)N[C@H](CO)Cc1c[nH]c2ccccc12,inactive: -2.82%
20,Cc1ccc2c(c1)C1CN(C)CCC1N2C(=O)c1cccnc1Cl (stereo not given),inactive: -0.46%
21,O=P1(N(CCCl)CCCl)OCCCS1 (stereo not given),inactive: -1.77%
22,O=[N+]([O-])c1ccccc1NC1CCN(Cc2ccccc2)CC1,inactive: -0.56%
23,Cc1ccc2c(c1)C1CN(C)CCC1N2C(=O)Nc1ccc(Cl)cc1 (stereo not given),inactive: 3.54%

row,SMILES,activation
1,O=C(Cn1cnc2ccccc21)NCCCN1CCOCC1,inactive: -1.31%
2,CC(C)[C@H](NC(=O)N1CCn2c1nc1ccccc12)C(=O)N[C@H](C(=O)O)c1ccccc1,inactive: -2.15%
3,Cn1c(=O)c2ncn(CC(=O)NC3CCCCCC3)c2n(C)c1=O,inactive: -1.58%
4,CC(C)[C@H](NC(=O)N1CCn2c1nc1ccccc12)C(=O)NCc1ccc2c(c1)OCO2,inactive: -2.2%
5,Cn1c(=O)n(Cc2ccc(Cl)cc2)c(=O)c2c1nc1n2CCN1Cc1ccco1,inactive: 0.94%
6,CN(C)C(=O)Cn1c(SCC(=O)NC2CCCCC2)nc2ccccc21,inactive: 0.07%
7,CC(=O)Nc1ccc2c(c1)nc1n2CCN(C(C)c2ccccc2)C1 (stereo not given),inactive: -3.78%
8,C(Cc1nn[nH]n1)Cc1nn[nH]n1,inactive: -3.25%
9,O=C(Nc1ccccc1Cl)N1CCn2c(nc3ccccc32)C1,inactive: -1.21%
10,COc1ccc(CCNC(=O)Cn2cnc3c2c(=O)n(C)c(=O)n3C)cc1OC,inactive: -1.45%
11,Cn1c(=O)[nH]c(=O)c2c1nc(CN(Cc1ccccc1)Cc1ccccc1)n2CCN1CCOCC1,inactive: -2.76%
12,CSCC[C@H](NC(=O)N1CCn2c1nc1ccccc12)C(=O)NCc1ccc(F)cc1,inactive: -1.86%
13,N=c1n(CCO)c2ccccc2n1CCN1CCCCC1,inactive: -0.65%
14,Nc1ccc([As](=O)(O)c2ccc([N+](=O)[O-])cc2)cc1,inactive: -1.12%
15,COc1ccc(C(=O)N2CCn3c2nc2ccccc23)cc1,inactive: -1.56%
16,COc1cc(C(=O)OCCn2c(=O)c3c(ncn3CCN(C)C)n(C)c2=O)cc(OC)c1OC,inactive: -0.89%
17,O=C(Cn1c(CC(=O)N2CCCC2)nc2ccccc21)NCc1ccccc1,inactive: 0.7%
18,COCCOC(=O)C1=C(C)N=C2SCCC(=O)N2C1/C=C/c1ccccc1 (stereo not given),inactive: 0.31%
19,Cc1ccc2c(c1)C1CN(C)CCC1N2C(=O)/C=C/c1ccc2c(c1)OCO2 (stereo not given),inactive: -0.37%
20,O=C(Nc1cccc(F)c1)N1CCC(n2c(=O)[nH]c3ccccc32)CC1,inactive: 0.63%
21,O=C(Cn1cnc2c(OCc3ccccc3)ncnc21)NCc1nc2ccccc2[nH]1,inactive: -4.4%
22,O=C(OC1CN2CCC1CC2)c1cccc(Cl)c1 (stereo not given),inactive: -2.19%
23,COc1ccc(N2C(=O)CC(N3CCC(n4c(=O)[nH]c5ccccc54)CC3)C2=O)cc1 (stereo not given),inactive: -2.29%

row,SMILES,activation
1,CC(C)C[C@H](NC(=O)N1CCn2c1nc1ccccc12)C(=O)N[C@@H](Cc1ccccc1)C(=O)O,inactive: -0.17%
2,CCn1c(N)[n+](CC(=O)Nc2ccc(SC(F)F)cc2)c2ccccc21,active: 44.1%
3,O=[N+]([O-])c1ncn(CCn2cnc([N+](=O)[O-])n2)n1,inactive: -0.03%
4,CC(=O)NC(SC(=S)N(C)C)C(Cl)(Cl)Cl (stereo not given),inactive: -0.39%
5,CCOC(=O)C1=C(Cn2cnc3ccccc32)NC(=O)NC1c1cc(C)ccc1C (stereo not given),inactive: -1.94%
6,O=[N+]([O-])c1ccc(O)c(/C=N/Nc2ccc([N+](=O)[O-])cc2[N+](=O)[O-])c1,inactive: 1.93%
7,O=C(Cn1cnc2c(OCc3ccccc3)ncnc21)NCc1ccc2[nH]ccc2c1,inactive: -2.87%
8,CCn1nccc1C(=O)Nc1nc2ccccc2n1CCN1CCCCC1,inactive: -1.44%
9,N=c1n(CCN2CCOCC2)c2ccccc2n1CC(=O)c1ccc(Cl)c(Cl)c1,inactive: 1.76%
10,CS(=O)(=O)Cc1nc2ccccc2n1CC(=O)Nc1cccc(S(=O)(=O)N2CCCC2)c1,inactive: -2.15%
11,CCOc1ccc(NC(=O)N2CCC(n3c(=O)[nH]c4ccccc43)CC2)cc1,inactive: 0.45%
12,O=C(Cn1c(=O)n(CC2CS2)c2ccccc21)N1CCCCC1 (stereo not given),inactive: -2.02%
13,Cc1nc2cc(C(F)(F)F)ccc2n1C1CCN(Cc2nnnn2Cc2cccs2)CC1,inactive: -0.22%
14,COCC(C)NC(=O)Cn1c(SCc2ccccc2)nc2ccccc21 (stereo not given),inactive: -2.32%
15,CC1CCCC(NC(=O)Cn2c(Cl)nc3c2c(=O)n(C)c(=O)n3C)C1C (stereo not given),inactive: -2.65%
16,O=[As](O)(c1ccccc1)c1ccc(O)cc1,inactive: -2.14%
17,O=C(Cn1cnc2c(NCc3ccccc3)ncnc21)NCc1ccccc1,inactive: -3.69%
18,Cc1nc2ccc(S(=O)(=O)NC(C(=O)N3CCn4c3nc3ccccc34)C(C)C)cc2s1 (stereo not given),inactive: -2.06%
19,CCN(CC)CCn1c(NC(=O)c2ccccc2O)nc2ccccc21,inactive: 6.25%
20,Cn1c(=O)c2c(ncn2CC(=O)Nc2nc(-c3ccc(F)c(F)c3)cs2)n(C)c1=O,inactive: -0.93%
21,O=P(Nc1nc2ccccc2s1)(c1ccccc1)c1ccccc1,inactive: -3.02%
22,Cn1c(=O)n(CC(=O)Nc2cccnc2)c2ccccc21,inactive: -1.08%
23,N=c1n(CCN2CCCC2)c2ccccc2n1CC(O)c1ccco1 (stereo not given),inactive: -4.96%

row,SMILES,activation
1,CC(C)N(C(=O)Cn1c(SCC(=O)NC2CC2)nc2ccccc21)C(C)C,inactive: -2.32%
2,Cn1c(=O)c2c(ncn2CC(=O)N2CCOCC2)n(C)c1=O,inactive: -2.93%
3,C[C@H]1OP(=O)(Oc2ccccc2)[C@H](O)[C@H](O)[C@H]1N=[N+]=[N-] (stereo not given in full),inactive: -0.91%
4,Cc1cc2ncn(C3CC(=O)N(Cc4ccc(N5CCCC5=O)cc4)C3=O)c2cc1C (stereo not given),inactive: -1.69%
5,COc1ccccc1OCCSc1nc2ccccc2n1CC(N)=O,inactive: -3.61%
6,CCN(CC)CCn1c(NS(=O)(=O)c2ccc(Cl)cc2)nc2ccccc21,inactive: 1.77%
7,Cc1ccc(Cn2nnnc2CN2CCC(n3nnc4ccccc43)CC2)cc1,inactive: -2.34%
8,O=c1oc2ccccc2c2c1ncn2CCN1CCOCC1,inactive: -1.61%
9,COc1ccc(OC)c(C(=O)CSc2nc3ccccc3n2CC(=O)NC(C)(C)C)c1,inactive: -2.31%
10,O=C(Cn1c2[n+](c3ccc(C(F)(F)F)cc31)CCCCC2)Nc1ccccc1,inactive: -0.95%
11,Cc1nc2ccccc2n1CC(=O)NC1CCCC1,inactive: -3.58%
12,CCOCN(C(=O)Cn1c(CO)nc2ccccc21)c1c(C)cccc1CC,inactive: 2.25%
13,CC(O)c1nc2ccccc2n1CC(=O)Nc1ccc2c(c1)OCCO2 (stereo not given),inactive: 0.09%
14,CSCC[C@H](NC(=O)N1CCn2c1nc1ccccc12)C(=O)NCC1CCCO1 (stereo not given in full),inactive: -2.85%
15,CSc1ccccc1NC(=O)Cn1c(-c2cscn2)nc2ccccc21,inactive: -3.44%
16,O=C(Cn1cnc2ccccc21)N/N=C/c1ccccn1,inactive: -4.37%
17,COc1ccc(N)c([N+](=O)[O-])c1[N+](=O)[O-],inactive: -1.91%
18,CC(C)(C)NC(=O)Cn1c(Cl)nc2ccccc21,inactive: -2.58%
19,Cc1ccc(/C=N/NC(=O)Cn2cnc3c2c(=O)n(C)c(=O)n3C)s1,inactive: 0.43%
20,c1ccc2c(c1)nc(NCc1ccc3c(c1)OCO3)n2CCN1CCOCC1,inactive: -5.47%
21,COC(=O)[C@H](CC(C)C)NC(=O)Cn1cnc2c(NCc3ccccc3)ncnc21,inactive: -2.51%
